As a reminder, the LD50 is the dose at which mortality reaches 50%. A higher LD50 goes with lower toxicity.

The text below walks through data of ChEMBL document CHEMBL1123005, “1-Azacycloalkyl-1,4-benzodiazepin-2-ones with antianxiety-antidepressant actions” (J Med Chem, 1985).

Series [1] relates to Mus musculus. Briefly: Acute toxicity was measured in mice after peroral administration. Type of series: organism-based. To be noted: in vivo, po. The procedure, abridged: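 Male DS mice, 20-26 g, given compound orally; mortality checked the day after treatment in groups of 10. LD50 by probit method, or by up-and-down method of Brownlee et al. (n = 5) where estimated.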
Series [2] deals with Mus musculus. Briefly: Acute toxicity was measured in mice after peroral administration (425-553). To be noted: in vivo, po.

With `CN1CCC(N2C(=O)CN=C(c3ccccc3)c3cc(Cl)ccc32)CC1`, the LD50 with Mus musculus [1] was determined as 548 mg/kg. `CN1CCC(N2C(=O)CN=C(c3ccccc3F)c3cc(F)ccc32)CC1` registered an LD50 in the series on Mus musculus [1] of 267 mg/kg. The compound `CN1CCC(N2C(=O)CN=C(c3ccccc3)c3ccccc32)CC1` gave an LD50 with Mus musculus [1] of 425 mg/kg. Compound `CN1CCC(N2C(=O)CN=C(c3ccccc3F)c3cc(Cl)ccc32)CC1` registered an LD50 with Mus musculus [2] of 489 mg/kg.
